Results reported in PubChem BioAssay AID588338 (NMMLSC, 2011).
Only a part is listed here, and it is no random draw. Activity calls are given as the source filed them.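 The calls were made as follows: active = inhibition above 50%, about 3 SD of the inhibition seen with non-fluorescent compounds; inactive = the rest.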

experiment: interference with GST/GSH bead binding – biochemical, cherry pick 1, flow cytometry, artefact control for arrestin-AP2 inhibitor project, confirmation (AID 588338); details: GST-fluorescein binding to GSH beads, fluorescence, counter-screen; at 10 µM; stronger effect = higher value;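 also: fluorescein maleimide labelled GST captured on 4 micron glutathione beads; higher means more loss of bead fluorescence from quenching or blocked binding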

Compound	inhibition
COC(=O)c1cc2c(s1)N=C(c1ccccc1)N(C)P2(=O)N1CCOCC1 (stereo unspecified)	inactive: 6.38%
